In PubChem BioAssay AID620 (Sanford-Burnham Center for Chemical Genomics, 2007) one finds cytotoxicity data, which are given here for 27 compounds.

The list shows a part of the results, in another mix than the full data. Activity calls are given as the source filed them. No stated cut-off is given here; in the data, active means cytotoxicity above about 50%; inactive means the rest.

The test in a line: HT1080 cell viability loss – fluorescence readout (AID 620).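 Further: cells exposed to compound overnight then 4 h with Alamar Blue; 0% = vehicle DMSO and 100% = killing control.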 Particulars: at 10 µM, active compounds read high.
Consider `Cc1cccc(OCC(=O)OC2CN3CCC2CC3)c1` (configuration not stated), for which the cytotoxicity is inactive: 5.5%.

As for `CCOP1(=S)c2c(C)nn(CCC#N)c2N=C(c2ccccc2F)N1C` (configuration not stated), the cytotoxicity is inactive: 3.9%.

In the case of `O=P(Nc1nccs1)(c1ccccc1)c1nc2ccccc2s1` (configuration not stated), the cytotoxicity is inactive: -1.1%.

For the compound `CCOP1(=S)c2c(C)nn(CCC#N)c2N=C(c2ccc(F)cc2)N1C` (configuration not stated), the cytotoxicity is inactive: 20.8%.

For `Cc1nn(-c2ccccc2)c2c1P(=O)(N1CCOCC1)N(C)C(c1ccccc1)=N2` (configuration not stated), the cytotoxicity was inactive: 4.4%.

Take `O=P1(Nc2ccc(Br)cn2)COc2ccccc2OC1`: the cytotoxicity was inactive: 4.3%.

As for `Cc1ccc(OCC(=O)OC2CN3CCC2CC3)cc1` (configuration not stated), the cytotoxicity was inactive: 0.4%.

`O=P1(Nc2ncccn2)COc2ccccc2OC1`: the cytotoxicity is inactive: 29.6%.

As to `Clc1n[nH]nc1-c1nn[nH][15n]1`, the cytotoxicity is inactive: 18.2%.

With `O=P1(Nc2ccccn2)COc2ccccc2OC1`, the cytotoxicity is inactive: -7.4%.

As to `CC1(CBr)Cn2c(nc3ccccc3c2=O)S1` (configuration not stated), the cytotoxicity was inactive: -9.3%.

For `O=C(COc1ccccc1)OC1CN2CCC1CC2` (configuration not stated), the cytotoxicity was inactive: -2.1%.

Take `COP1(=S)c2c(C)nn(CCC#N)c2N=C(c2ccc(F)cc2)N1C` (configuration not stated): the cytotoxicity was inactive: -2.1%.

In the case of `CCC(C)N(CC(C)C)C(=S)SC(NC(C)=O)C(Cl)(Cl)Cl` (configuration not stated), the cytotoxicity is inactive: 1.1%.

For `ClCCSc1nnc(-c2cccnc2)o1`, the cytotoxicity is inactive: 3.5%.

For `O=C(OC1CN2CCC1CC2)C12CC3CC(CC(C3)C1)C2` (configuration not stated), the cytotoxicity was inactive: 19.5%.

Consider `Oc1ccccc1CNc1ccccn1`, for which the cytotoxicity was inactive: -5.4%.

Consider `Cc1c2non([O-])c-2c(C)[n+](=O)[n+]1[O-]`, for which the cytotoxicity is inactive: 8%.

For `CCOP(=O)(Nc1ccccc1)OCC`, the cytotoxicity is inactive: 27.1%.

As to `CCc1nc2c(n1)c1c(non1O)c1c2no[n+]1[O-]`, the cytotoxicity is active: 77.5%.

With `O=[N+]([O-])c1cccc2n[nH]nc12`, the cytotoxicity is inactive: -1.8%.

Consider `CC1CCN(C(=O)Oc2c(Cl)cc(Cl)c3cccnc23)CC1`, for which the cytotoxicity is inactive: -16.8%.

For the compound `c1nnnn1CCn1cnnn1`, the cytotoxicity was inactive: 26.5%.

Turning to `O=P(Nc1nccs1)(c1ccccc1)c1ccccc1`, the cytotoxicity is inactive: 5.1%.

In the case of `O=C(OC1CN2CCC1CC2)c1cccc(Cl)c1` (configuration not stated), the cytotoxicity is inactive: -4%.

Turning to `COC(=O)c1cc2c(s1)N=C(c1ccccc1)N(C)P2(=O)N1CCOCC1` (configuration not stated), the cytotoxicity is inactive: 2%.

As for `O=P1(Nc2nc3ccc(Cl)cc3s2)COc2ccccc2O1` (configuration not stated), the cytotoxicity is inactive: 7.7%.
